Test [1] deals with muscarinic receptors, lachrymal glands (Rattus norvegicus, UniProt P08483). Nature of the test: Receptor bonding test in vivo, lachrymal glands (3H-NMS). The following applies: iv, 0.5 h, read-out: ID50 Lachrymal glands.
The test system of another test is salivation. Nature of the test: Salivation-inhibiting effect on the rat (pilocarpine). It is filed as in vivo, male THOM rats. Conditions: i.v. ED50 values.
The target in test [2] is muscarinic receptors, heart atrium (Rattus norvegicus, UniProt P10980). Nature of the test: Receptor bonding test in vivo, heart atrium (3H-NMS). Conditions: in vivo binding, 30 min.
The target of test [3] is T1, muscarinic receptors, heart (Rattus norvegicus, UniProt P10980).
T1 construct: After removal of the heart and submandibular gland; from tissue; host or cells: whole heart of male Sprague-Dawley rats, homogenate
Nature of the test: Receptor bonding test in vitro, heart (displacement of 3H-N-methylscopolamine). The class given is binding, Sprague-Dawley rats. In general terms: In a radioligand displacement assay an active substance lowers the binding of a labelled ligand.

Amino acid sequences for entries named in this document (tags omitted).
UniProt P08483, whole entry: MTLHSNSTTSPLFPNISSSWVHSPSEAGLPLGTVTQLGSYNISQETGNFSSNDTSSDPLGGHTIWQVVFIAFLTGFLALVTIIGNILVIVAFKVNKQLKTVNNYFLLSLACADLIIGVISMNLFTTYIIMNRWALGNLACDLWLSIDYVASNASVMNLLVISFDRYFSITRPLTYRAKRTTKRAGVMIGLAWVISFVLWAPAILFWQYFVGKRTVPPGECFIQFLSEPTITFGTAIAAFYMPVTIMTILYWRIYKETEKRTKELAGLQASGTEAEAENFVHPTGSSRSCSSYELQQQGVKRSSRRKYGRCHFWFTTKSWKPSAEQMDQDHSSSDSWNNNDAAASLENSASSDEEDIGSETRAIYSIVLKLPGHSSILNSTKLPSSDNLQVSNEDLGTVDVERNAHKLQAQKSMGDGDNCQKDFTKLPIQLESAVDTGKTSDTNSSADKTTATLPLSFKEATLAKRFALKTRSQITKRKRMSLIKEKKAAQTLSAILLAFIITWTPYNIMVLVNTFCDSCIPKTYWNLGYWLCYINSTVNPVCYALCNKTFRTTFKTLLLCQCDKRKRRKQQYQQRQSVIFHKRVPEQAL
UniProt P10980, whole entry: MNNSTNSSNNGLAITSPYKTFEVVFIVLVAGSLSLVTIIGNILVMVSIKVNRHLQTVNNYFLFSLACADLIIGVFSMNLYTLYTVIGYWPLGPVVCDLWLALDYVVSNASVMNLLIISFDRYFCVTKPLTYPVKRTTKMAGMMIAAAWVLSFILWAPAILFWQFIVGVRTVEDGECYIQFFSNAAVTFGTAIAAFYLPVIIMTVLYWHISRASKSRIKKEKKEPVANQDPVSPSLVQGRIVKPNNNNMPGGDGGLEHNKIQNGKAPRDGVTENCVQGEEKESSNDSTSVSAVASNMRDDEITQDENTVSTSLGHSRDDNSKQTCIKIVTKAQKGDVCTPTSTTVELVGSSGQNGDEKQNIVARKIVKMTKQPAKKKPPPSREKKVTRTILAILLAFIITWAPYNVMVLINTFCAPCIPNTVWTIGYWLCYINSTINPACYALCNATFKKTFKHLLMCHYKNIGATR

Turning to `CCN(CC)CC1CCCCN1CCNC(=O)N1c2cc(Cl)ccc2C(=O)Nc2cccnc21` (stereo not shown) [Substance C, 9-chloro-11-[[[2-[2-[(diethylamino)methyl]-piperidin-1-yl]ethyl]amino]carbonyl]-5,11-dihydro-6H-pyrido[2,3-b][1,4]benzodiazepin-6-one], in test [1], the ED50 was determined as 10 mg/kg. Further, the “Ratio of salivation inhibition to M2 activity” value in the test on salivation is 24.12. Further, the “Ratio of ID50 lachrymal gland to ID50 atrium” value in test [2] amounted to 50. The “Selectivity factor: Ratio IC50 submandibular gland to IC50 heart” value in test [3] is recorded as 5.

For the origin of these results see patent US4873236A, “Condensed diazepinones, processes for preparing them and pharmaceutical compositions containing these compounds” (Dr. Karl Thomae GmbH, priority 1986, dated 1989).
